# Molecular target: T1, MT1-MMP Hemopexin domain (PEX) (UniProt P50281 319-511)
# T1 construct: domain: Hemopexin domain (PEX); Target of the fluorescence polarisation assays; also called hemopexin of MT1-MMP; MMP14
# Test: FP competition vs tracer 17-69-07-N040
# From the text: Here, a pre-formed complex of PEX with the fluorescent PEX-binding tracer is titrated with free, non-fluoresceinated bicyclic peptide. Since all 17-69-based peptides are expected to bind at the same site, the titrant will displace the fluorescent tracer from PEX. Dissociation of the complex can be measured quantitatively, and the Kd of the competitor (titrant) to the target protein determined. The advantage of the competition method is that the affinities of non-fluoresceinated bicyclic peptides can be determined accurately and rapidly.
# Subsequently, the non-fluorescent competitor bicyclic peptide (usually just the bicycle core sequence) is titrated, such that it displaces the fluorescent tracer from the target protein. The displacement of the tracer is measured and associated with a drop in fluorescence polarisation. The drop in fluorescence polarisation is proportional to the fraction of target protein bound with the non-fluorescent titrant, and thus is a measure of the affinity of titrant to target protein.
# The raw data is fit to the analytical solution of the cubic equation that describes the equilibria between fluorescent tracer, titrant, and binding protein. The fit requires the value of the affinity of fluorescent tracer to the target protein, which can be determined separately by direct binding FP experiments (see previous section).
row,Kd,Binder
1,213 nM,ACPGECFYPPGHPLRCTVL (3 Cys linked to TATA scaffold) [17-129-20-T01]
2,352 nM,ACHPEWVSCEFHCA (3 Cys linked to TATA scaffold) [17-116-01]
3,536 nM,ACPQECFYPIGHPLACA (3 Cys linked to TATA scaffold) [17-129-03]
4,2200 nM,ACPEECFYLPPHPMSCA (3 Cys linked to TATA scaffold) [17-127-01]
5,1090 nM,ACPDECFYPPEHPLACA (3 Cys linked to TATA scaffold) [17-129-09]
6,250 nM,ACPEQFYPCTHRLYQCA (3 Cys linked to TATA scaffold) [17-126-28]
7,263 nM,DCPGECFYPPNHPLYCRA (3 Cys linked to TATA scaffold) [17-129-16-T01]
8,705 nM,ISSYGCPGECFYPPGHPLACA (3 Cys linked to TATA scaffold) [17-129-01-T04]
9,1200 nM,ACDEDFYPCGHYLNQCA (3 Cys linked to TATA scaffold) [17-126-26]
10,324 nM,ENITTCPGECFYPPGHPLACA (3 Cys linked to TATA scaffold) [17-129-01-T05]
11,318 nM,ACPGECFYPPGHPLYCNVI (3 Cys linked to TATA scaffold) [17-129-14-T02]
12,246 nM,QCPGECFYPPGHPLYCNA (3 Cys linked to TATA scaffold) [17-129-14-T01]
13,155 nM,AVWCEEAFYPCSHPLHPCA (3 Cys linked to TATA scaffold) [17-126-37-T01]
14,172 nM,ADYCWMECFYPPGHPLACA (3 Cys linked to TATA scaffold) [17-129-18-T04]
15,53.7 nM,ACPGECFYPPGHRFHCLTE (3 Cys linked to TATA scaffold) [17-129-22-T01]
16,54.8 nM,ACPGECFYPPGHRLYCYSE (3 Cys linked to TATA scaffold) [17-129-23-T01]
17,582 nM,ACPQECFYPSTHPLYCA (3 Cys linked to TATA scaffold) [17-129-07]
18,202 nM,QESCWMECFYPPGHPLACA (3 Cys linked to TATA scaffold) [17-129-18-T03]
19,334 nM,DNMCWMECFYPPGHPLACA (3 Cys linked to TATA scaffold) [17-129-18-T02]
20,187 nM,LCPEECFYPPNHPLYCHA (3 Cys linked to TATA scaffold) [17-129-12-T01]
21,248 nM,TCPGECFYPPDHPLYCNA (3 Cys linked to TATA scaffold) [17-129-13-T01]
22,138 nM,REECWMECFYPPGHPLACA (3 Cys linked to TATA scaffold) [17-129-18-T01]
23,312 nM,RYMTRCPEECFYPPGHPLACA (3 Cys linked to TATA scaffold) [17-129-17-T03]
24,754 nM,MANCFEECFYPPGHPLACA (3 Cys linked to TATA scaffold) [17-129-19-T01]
25,499 nM,SQTCPGECFYPPGHPLACA (3 Cys linked to TATA scaffold) [17-129-01-T01]
26,525 nM,SMTCPGECFYPPGHPLACA (3 Cys linked to TATA scaffold) [17-129-01-T02]

row,Kd,Binder
1,390 nM,IHSCAEEFYPCDHPLYRCA (3 Cys linked to TATA scaffold) [17-126-32-T01]
2,244 nM,WSPCEEAFYPCNHPLYTCA (3 Cys linked to TATA scaffold) [17-126-33-T01]
3,187 nM,ACEEQFYPCSHPLYSCPDVA (3 Cys linked to TATA scaffold) [17-126-39-T01]
4,202 nM,ACEEQFYPCNHPLYMCRENA (3 Cys linked to TATA scaffold) [17-126-41-T01]
5,239 nM,HSPCEEQFYPCSHPLYRCA (3 Cys linked to TATA scaffold) [17-126-30-T01]
6,136 nM,ACPQECFYPPGHRLRCA (3 Cys linked to TATA scaffold) [17-129-05]
7,446 nM,ACPQECFYLPGHSLYCA (3 Cys linked to TATA scaffold) [17-129-00]
8,263 nM,DLHCAEAFYPCDHPLYVCA (3 Cys linked to TATA scaffold) [17-126-35-T01]
9,458 nM,SQNCFEECFYPPGHPLACA (3 Cys linked to TATA scaffold) [17-129-19-T02]
10,310 nM,ACEEAFYPCEHPLYMCHQAA (3 Cys linked to TATA scaffold) [17-126-40-T01]
11,143 nM,ACEEQFYPCTHPLYVCA (3 Cys linked to TATA scaffold) [17-126-27]
12,595 nM,ACPEECFYPPGHKLHCA (3 Cys linked to TATA scaffold) [17-129-04]
13,516 nM,ACPGECFYPSNHRLYCA (3 Cys linked to TATA scaffold) [17-129-08]
14,278 nM,NCPGECFYPPNHPFYCNA (3 Cys linked to TATA scaffold) [17-129-15-T01]
15,149 nM,ANECEEAFYPCSHPLFICA (3 Cys linked to TATA scaffold) [17-126-36-T01]
16,418 nM,SRMCPEECFYPPGHPLACA (3 Cys linked to TATA scaffold) [17-129-17-T01]
17,369 nM,SRSCPEECFYPPGHPLACA (3 Cys linked to TATA scaffold) [17-129-17-T02]
18,566 nM,ACPQECFYPPGHPYHCA (3 Cys linked to TATA scaffold) [17-129-06]
19,877 nM,ACPGECFYPTNHPLYCA (3 Cys linked to TATA scaffold) [17-129-02]
20,781 nM,ACPGECFYPPGHHLSCA (3 Cys linked to TATA scaffold) [17-129-10]
21,912 nM,ACPGECFYPPGHHLGCA (3 Cys linked to TATA scaffold) [17-129-11]
22,598 nM,SLVCPGECFYPPGHPLACA (3 Cys linked to TATA scaffold) [17-129-01-T03]
23,295 nM,GPHCAEQFYPCDHPLYRCA (3 Cys linked to TATA scaffold) [17-126-31-T01]
24,111 nM,ACPGECFYPPGHPRECSWL (3 Cys linked to TATA scaffold) [17-129-21-T01]
25,162 nM,KVQCEEAFYPCSHPLFVCA (3 Cys linked to TATA scaffold) [17-126-38-T01]
26,296 nM,SHSCEEAFYPCNHPLYTCA (3 Cys linked to TATA scaffold) [17-126-33-T02]

# — patent US20220024982A1 (Bicycle, published 2022)
